Source: US20220324865A1 (Bayer Aktiengesellschaft, priority 2018, published 2022)

Amino acid sequences for entries named in this document (tags omitted).
UniProt P43115, whole entry: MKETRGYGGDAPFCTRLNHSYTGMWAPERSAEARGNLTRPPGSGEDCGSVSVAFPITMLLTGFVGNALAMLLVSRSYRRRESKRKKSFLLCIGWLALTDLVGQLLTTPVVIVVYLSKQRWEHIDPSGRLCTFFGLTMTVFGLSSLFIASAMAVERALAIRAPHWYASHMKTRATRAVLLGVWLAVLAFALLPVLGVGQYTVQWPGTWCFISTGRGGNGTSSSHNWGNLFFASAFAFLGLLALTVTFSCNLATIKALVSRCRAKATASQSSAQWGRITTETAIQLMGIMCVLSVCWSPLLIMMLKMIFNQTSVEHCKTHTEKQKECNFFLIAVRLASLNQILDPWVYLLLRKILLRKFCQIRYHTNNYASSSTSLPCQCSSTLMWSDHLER

Each compound was assayed against human EP3 receptor (Homo sapiens, UniProt P43115) (assay: Cellular in vitro assay for determining EP3 receptor activity (human EP3 cell line, sulprostone-stimulated calcium luminescence)). Conditions: read-out: EP3 CHO mtCLY ANTAG IC50; CHO cells expressing human EP3 and mitochondrial Clytin; antagonist mode, sulprostone at EC50.
Description: B-1. Cellular In Vitro Assay for Determining EP3 Receptor Activity
The identification of antagonists of the EP3 receptor from humans and rats as well as the quantification of the activity of the compounds of the invention was carried out using recombinant cell lines. These cell lines originally derive from a hamsters ovary epithelial cell (Chinese Hamster Ovary, CHO K1, ATCC: American Type Culture Collection, Manassas, Va. 20108, USA). The test cell lines constitutively express the human or rat EP3 receptors. The naturally Gαi-coupled human and rat EP3 receptors were stably co-transfected with Gα16 into cells that are also stably transfected with a mitochondrial form of the calcium-sensitive photoproteins Clytin (human EP3) or Photina (rat EP3), which, after reconstitution with the cofactor coelenterazine, emit light when there are increases in free calcium concentrations (Nature 1992, 358, 325-327; Gene 1995, 153 (2), 273-274). The resulting EP3 receptor cells react to stimulation of the recombinantly expressed EP3 receptors by the agonist sulprostone with intracellular release of calcium ions, which can be quantified by the resulting photoprotein luminescence. Antagonists inhibit the receptor signaling, leading to reduced calcium release and luminescence. The bioluminescence of the cell lines is detected using a suitable luminometer (Trends Pharmacol. Sci. 1996, 17, 235-237).
Human and Rat EP3 Cell Lines:
On the day before the assay, the cells are plated out in culture medium (OptiMEM, 1% FCS, 2 mM glutamine, 10 mM HEPES, 5 μg/ml coelenterazine) in 384-well microtiter plates and kept in a cell incubator (96% humidity, 5% v/v CO2, 37° C.). On the day of the assay, test compounds in various concentrations are placed for 10 minutes in the wells of the microtiter plate before the agonist sulprostone at EC50 concentration is added. The resulting light signal is measured immediately in a luminometer. All concentrations are measured in quadruples.

IC50 [nM] | Structure (SMILES)
1.09 | Cc1ccc(-c2cn3nc(C(=O)NCC(O)C(F)F)c(C4CC4)c3c(=O)[nH]2)cc1C (single isomer, unassigned) [6-429]
2.05 | O=C(N[C@@H](c1ccc(F)cc1)C(F)(F)CO)c1nn2cc(-c3ccc(Cl)c(F)c3)[nH]c(=O)c2c1C1CC1(F)F (stereo partly drawn)
4.55 | O=C(NCC(O)C(F)(F)F)c1nn2cc(-c3ccc(Cl)c(F)c3)[nH]c(=O)c2c1C1CC1 (single isomer, unassigned) [6-91]
5.25 | CC(C)c1c(C(=O)N[C@@H](c2ccc(F)cc2)C(F)(F)CO)nn2cc(-c3cccc(Cl)c3)[nH]c(=O)c12
7.25 | O=C(N[C@@H](c1ccc(F)cc1)C(F)(F)CO)c1nn2cc(-c3ccc(Cl)c(F)c3)[nH]c(=O)c2c1C1CC(F)(F)C1
4.7 | O=C(NC(CN1CCOCC1)c1ccc(F)cc1)c1nn2cc(-c3ccc4ccccc4c3)[nH]c(=O)c2c1C(F)(F)F (single isomer, unassigned) [6-503]
8.8 | Cc1ccc(-c2cn3nc(C(=O)NC(CO)C4CC4)c(C4CC4)c3c(=O)[nH]2)cc1Cl (single isomer, unassigned) [6-268]
1.68 | Cc1ccc(-c2cn3nc(C(=O)N[C@@H](c4ccc(F)cc4)C(C)(C)O)cc3c(=O)[nH]2)cc1Cl
0.65 | Cc1cc(-c2cn3nc(C(=O)N[C@H](C)c4ccc(F)cc4)c(C4CC4)c3c(=O)[nH]2)ccc1Cl
2.3 | Cc1ccc(-c2cn3nc(C(=O)NC4CCN(C5CC5)C4)c(C4CC4)c3c(=O)[nH]2)cc1C (single isomer, unassigned) [6-449]
2.35 | Cc1ccc(-c2cn3nc(C(=O)N[C@@H](C)C(C)(C)C)c(C(F)(F)F)c3c(=O)[nH]2)cc1Cl
2.85 | Cc1ccc(-c2cn3nc(C(=O)NC(CO)C4CC4)c(C4CC4)c3c(=O)[nH]2)cc1Cl (single isomer, unassigned) [6-266]
1.37 | Cc1cc(-c2cn3nc(C(=O)NC(CO)C(F)(F)F)c(C4CC4)c3c(=O)[nH]2)ccc1Cl (single isomer, unassigned) [6-306]
1.1 | Cc1cc(-c2cn3nc(C(=O)N[C@@H](C)C(C)(C)C)c(C(F)(F)F)c3c(=O)[nH]2)ccc1Cl
4.85 | Cc1ccc(-c2cn3nc(C(=O)NCC(O)C(F)(F)F)c(C(F)(F)F)c3c(=O)[nH]2)cc1C (single isomer, unassigned)
1.21 | Cc1cc(-c2cn3nc(C(=O)N[C@@H](c4ccc(F)cc4)C(C)(C)O)cc3c(=O)[nH]2)ccc1Cl
1.07 | COC[C@@H](NC(=O)c1nn2cc(-c3ccc(C)c(Cl)c3)[nH]c(=O)c2c1C1CC1)c1ccccc1
8.65 | Cc1ccc(-c2cn3nc(C(=O)NCC(N)C(F)(F)F)c(C(F)(F)F)c3c(=O)[nH]2)cc1Cl (single isomer, unassigned) [6-167]
5.25 | Cc1ccc(-c2cn3nc(C(=O)NC(CN4CCOCC4)c4ccc(F)cc4)c(C4CC4)c3c(=O)[nH]2)cc1C (single isomer, unassigned) [6-442]
4.45 | Cc1cc(-c2cn3nc(C(=O)N[C@H](c4ccc(F)cc4)C(C)(C)O)c(C4CC4)c3c(=O)[nH]2)ccc1Cl
3.93 | Cc1ccc(-c2cn3nc(C(=O)NC4(C#N)CCN(C(=O)OC(C)(C)C)C4)c(C(F)(F)F)c3c(=O)[nH]2)cc1F (stereo not drawn)
1.75 | Cc1ccc(-c2cn3nc(C(=O)N[C@@H](C)CO)c(C4CC4)c3c(=O)[nH]2)cc1Cl
8.55 | Cc1cc(-c2cn3nc(C(=O)NCC(O)C(F)(F)F)c(C(F)(F)F)c3c(=O)[nH]2)ccc1Cl (single isomer, unassigned) [6-205]
3.1 | COCc1c(C(=O)N[C@@H](c2ccc(F)cc2)C(C)(C)O)nn2cc(-c3ccc4c(c3)OCCO4)[nH]c(=O)c12
2.25 | Cc1ccc(-c2cn3nc(C(=O)N[C@H](C)CO)c(C4CC4)c3c(=O)[nH]2)cc1Cl
2.5 | Cc1ccc(-c2cn3nc(C(=O)NC4(c5ccc(F)cc5)CN(C)C4)c(Cl)c3c(=O)[nH]2)cc1C
11.2 | CC(C)(O)C(NC(=O)c1nn2cc(-c3ccc(Cl)c(F)c3)[nH]c(=O)c2c1C1CC1)c1ccc(F)c(F)c1 (single isomer, unassigned) [6-101]
